Laboratory results as given in patent US20250051444A1 (published 2025).

B1: L15-06 (antibody, V domains shown)
VH: EVQLLESGGGLVQPGGSLRLSCAASGFTFSSYYMSWVRQAPGKGLEWVADISVSGSYTNYADSVKGRFTISRDNSKNTLYLQMNSLRAEDTAVYYCARIGSYRSFFSTDDGDSLDYWGQGTLVTVSS
VL: not shown
B2: L15-07 (antibody, V domains shown)
VH: QVQLVQSGAEVKKPGSSVKVSCKASGGTFSTYAISWVRQAPGQGLEWMGGITPMFGTPNYAQKFQGRVTITADESTSTAYMELSSLRSEDTAVYYCARGDWYDYHFDYWGQGTLVTVSS
VL: QSALTQPASVSGSPGQSITISCTGTSSDVGGYNYVSWYQQHPGKAPKLMIYEVSNRPSGVSNRFSGSKSGNTASLTISGLQAEDEADYYCQSYANRDNFVVFGGGTKLTVL
B3: L15-08 (antibody, V domains shown)
VH: QVQLVESGGGLVKPGGSLRLSCAASGFTFSDYYMSWIRQAPGKGLEWVSDISVSSSYTNYADSVKGRFTISRDNAKNSLYLQMNSLRAEDTAVYYCARLGGYRSFFSTDDGDSLDYWGQGTLVTVSS
VL: not shown

Biological target: mouse LRRC15 (mouse, UniProt Q80X72 22-579)
Test: FACS binding to CHO cells

In order of rising EC50:
1. B1  1.17 nM
2. B3  1.78 nM
3. B2  186 nM
